Assay results taken from US9611503B2, “Escherichia coli cell line with thyA knockout and folA knockout” (priority 2011, dated 2017).

The chains behind the UniProt entries cited, without tags or fusion partners. Where a name states a change or a piece, a line headed by the entry shows the natural chain unless it says otherwise.
UniProt Q27783: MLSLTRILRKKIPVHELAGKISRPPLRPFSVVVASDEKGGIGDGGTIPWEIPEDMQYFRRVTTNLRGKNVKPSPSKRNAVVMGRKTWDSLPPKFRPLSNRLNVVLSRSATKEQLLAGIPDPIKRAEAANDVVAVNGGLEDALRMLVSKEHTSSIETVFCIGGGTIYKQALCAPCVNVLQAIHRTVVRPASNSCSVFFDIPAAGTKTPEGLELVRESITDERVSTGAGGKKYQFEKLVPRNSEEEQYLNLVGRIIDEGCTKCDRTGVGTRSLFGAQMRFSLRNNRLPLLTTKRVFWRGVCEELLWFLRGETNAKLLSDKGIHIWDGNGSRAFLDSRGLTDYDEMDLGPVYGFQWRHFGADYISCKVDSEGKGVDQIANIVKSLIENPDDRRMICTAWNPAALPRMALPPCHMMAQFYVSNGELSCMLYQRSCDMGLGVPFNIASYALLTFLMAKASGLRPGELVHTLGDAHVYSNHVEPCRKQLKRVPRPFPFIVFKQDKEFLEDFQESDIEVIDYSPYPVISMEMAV
UniProt P07382: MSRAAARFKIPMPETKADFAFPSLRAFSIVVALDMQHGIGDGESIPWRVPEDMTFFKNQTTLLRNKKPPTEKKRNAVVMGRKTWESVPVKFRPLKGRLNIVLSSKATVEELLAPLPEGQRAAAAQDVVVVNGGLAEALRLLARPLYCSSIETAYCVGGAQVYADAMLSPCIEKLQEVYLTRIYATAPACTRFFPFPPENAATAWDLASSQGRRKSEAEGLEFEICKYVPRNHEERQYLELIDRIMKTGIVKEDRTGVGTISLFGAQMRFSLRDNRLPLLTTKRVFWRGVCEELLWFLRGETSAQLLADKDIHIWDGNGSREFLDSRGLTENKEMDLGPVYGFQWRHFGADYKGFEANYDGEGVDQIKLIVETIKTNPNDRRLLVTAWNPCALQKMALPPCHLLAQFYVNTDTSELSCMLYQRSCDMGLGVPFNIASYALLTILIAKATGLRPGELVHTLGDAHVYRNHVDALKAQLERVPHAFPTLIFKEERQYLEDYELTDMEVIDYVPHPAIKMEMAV

Columns and labels:
[1] = molecular target: T1, DHFR-TS from Trypanosoma brucei (wildtype) (Trypanosoma brucei brucei, UniProt Q27783); assay: In vitro biochemical enzyme inhibition assay, purified DHFR-TS
T1 construct: made in house; host or cells: E. coli

[2] = molecular target: T2, DHFR-TS from Leishmania major (Leishmania major, UniProt P07382); assay: as above
T2 construct: made in house; host or cells: E. coli

`CCc1nc(N)nc(N)c1-c1ccc(Cl)cc1` [Pyrimethamine] gave a Ki [1] of 14.6 ± 0.59 nM and a Ki [2] of 200 ± 59 nM.
